Sequences of proteins named here, by UniProt entry; tags and fusion partners are left off.
BCLXL (human (endogenous in NAN12)), Q07817, UniProt Q07817, whole entry: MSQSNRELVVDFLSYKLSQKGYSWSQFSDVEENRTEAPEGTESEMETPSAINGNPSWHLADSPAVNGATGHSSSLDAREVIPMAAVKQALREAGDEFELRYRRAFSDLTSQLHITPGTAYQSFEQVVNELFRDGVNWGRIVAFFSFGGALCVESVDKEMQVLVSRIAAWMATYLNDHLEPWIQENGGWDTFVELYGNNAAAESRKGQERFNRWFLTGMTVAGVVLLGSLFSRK

In publication PMC10393035:

Target: BCLXL (human (endogenous in NAN12)), Q07817
Assay: co-IP; BCLXL immunoprecipitated from NAN12 cell lysate (1% Digitonin containing buffer); unbound proteins (OUT) quantified and compared to total lysates (IN)
Conditions: remark: other sources report otherwise

percent sequestered by BCLXL: 50%
B1: BAK, Q16611 1-211 (natural protein)
chain: MASGQGPGPPRQECGEPALPSASEEQVAQDTEEVFRSYVFYRHQQEQEAEGVAAPADPEMVTLPLQPSSTMGQVGRQLAIIGDDINRRYDSEFQTMLQHLQPTAENAYEYFTKIATSLFESGINWGRVVALLGFGYRLALHVYQHGLTGFLGQVTRFVVDFMLHHCIARWIAQRGGWVAALNLGNGPILNVLVVLGVVLLGQFVVRRFFKS
